Test results: patent publication US6649631B1, “Compositions and methods for treating bone deficit conditions” (The Board of Regents of the University of Texas System, priority 1999, dated 2003)

Test system: TMC-23 cells
Assay: Chondrogenic activity: alkaline phosphatase (ALP) activity in TMC-23 cells
Format: cell-based, mouse
Procedure: Compounds 59-008, 59-0102 and 50-0197 were assayed for effects on the differentiation of cartilage cells, as compared to the action of recombinant human BMP-2. Briefly, a mouse clonal chondrogenic cell line, TMC-23, was isolated and cloned from costal cartilage of transgenic mice containing the BMP-2 gene control region driving SV-40 large T-antigen, generated as described in Ghosh-Choudhury et al Endocrinology 137:331-39, 1996.
For measurement of alkaline phosphatase (ALP) activity, the technique of LF Bonewald et al. J. Biol Chem (1992) 267:8943-49, was employed. Briefly, TMC-23 cells were plated in 96 well microtiter plates in DMEM containing 10% FCS at 4×10^3 cells/well. Two days after plating, the cells were confluent and the medium was replaced with fresh medium containing 10% FCS and different concentrations of compounds or recombinant BMP-2. After an additional 2 or 5 days incubation, the plates were washed twice with PBS, and then lysing solution (0.05% Triton X-100) was added (100 μl/well). The cells were lysed by three freeze-thaw cycles of −70° C. (30 min), followed by 37° C. (30 min with shaking). Twenty microliters of cell lysates were assayed with 80 μl of 5 mM p-nitrophenol phosphate in 1.5 M 2-amino-2-methyl-propanol buffer, pH 10.3 (Sigma ALP kit, Sigma Chemical Co., St. Louis, Mo.) for 10 min at 37° C. The reaction was stopped by the addition of 100 μl of 0.5 M NaOH. The spectrophotometric absorbance at 405 nm was compared to that of p-nitrophenol standards to estimate ALP activity in the samples. The protein content of the cell lysates was determined by the Bio-Rad protein assay kit (Bio-Rad, Hercules, Calif.). Specific activity was calculated using these two parameters.

In the case of “Recombinant BMP2: recombinant human BMP-2, comparator for chondrogenic activity”, the “increase of ALP levels compared to the vehicle control” value (“increase of ALP levels” below) (10 ng/ml) is reported as about 1.5 fold, the “increase of ALP levels” value (50 ng/ml) is reported as about 4 fold and the “increase of ALP levels” value (100 ng/ml) is reported as “approximately 10 fold”.
